{"sequences": {"note": "Amino acid sequences for entries named in this document (tags omitted). A change or cut given only in a name is not applied to a line headed by its entry. Residues count along the entry.", "UniProt P14416, 1-414 isoform P14416-2": "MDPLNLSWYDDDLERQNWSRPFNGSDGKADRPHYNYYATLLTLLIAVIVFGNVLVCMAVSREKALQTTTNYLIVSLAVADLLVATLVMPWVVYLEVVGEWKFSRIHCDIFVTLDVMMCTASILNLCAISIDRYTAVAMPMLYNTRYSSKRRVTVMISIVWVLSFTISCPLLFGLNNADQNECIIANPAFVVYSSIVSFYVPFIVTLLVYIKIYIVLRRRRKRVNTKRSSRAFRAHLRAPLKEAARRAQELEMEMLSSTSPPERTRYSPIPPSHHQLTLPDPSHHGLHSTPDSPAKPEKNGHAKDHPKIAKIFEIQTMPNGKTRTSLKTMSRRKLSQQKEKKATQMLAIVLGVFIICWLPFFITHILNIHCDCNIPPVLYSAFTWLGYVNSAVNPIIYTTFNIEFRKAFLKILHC"}, "source": "paper PMC8027564", "about": "“A novel luminescence-based β-arrestin recruitment assay for unmodified receptors” (The Journal of Biological Chemistry, 2021)", "biological_target": "T1, D2R (Homo sapiens, UniProt P14416)", "T1 construct": "expressed in transfected cells; host or cells: Hek293 (D2R cotransfected with GRK2, MeN and ArC)", "format": "cell-based", "data": [{"smiles": "CCCN1CCCC(c2cccc(O)c2)C1", "note": "(stereo not shown) [PPP, (3-hydroxyphenyl)-N-propylpiperidine]", "values": [{"measurement": "pEC50 ± SD", "result": "−5.61 ± 1.01"}]}]}
